Source: patent US20230140691A1, “OPTICALLY CLEAR, IN-SITU FORMING BIODEGRADABLE NANO-CARRIERS FOR OCULAR THERAPY, AND METHODS USING SAME” (Rowan University, priority 2017, published 2023)

Assay: In vitro drug release from PLGA-PEG-PLGA hydrogel in microfluidic devices at physiological flow rate
Format: physicochemical
Details: 25 (w/v) % hydrogel, 35° C.
Method: The final volume of the hydrogel solution with the compound of interest was constrained to 100 μL because of the anatomical space in the lens capsule. Physiological flow rate (2.4 μl/min) was achieved using microfluidic devices. The devices resemble the anatomical dimensions of both the anterior and posterior chamber of the human eye, as well as the physiological dynamics of the aqueous humor flow. All of the release studies were conducted at 35° C. • a. Dexamethasone (Hydrophobic): 100 μL of PLGA-PEG-PLGA hydrogel solution at 25 (w/v) % was mixed with 100 μg of dexamethasone. The collected samples were analyzed via HPLC. • b. […] The collected samples were analyzed via fluoresce spectroscopy at an excitation, filter, and emission wavelengths (nm) of 483, 515 524, respectively • c. Nucleic acid conjugates (Hydrophilic): 62 μL of nucleic acid conjugates in PBS solution (31 μg) were mixed with 38 μL of hydrogel solution at a concentration of 25 (w/v) %. Because the nucleic acid conjugates were already dissolved in PBS, the hydrogel solution was diluted down to 14 (w/v) %. The collected samples were analyzed via fluorescence spectroscopy at an excitation, filter, and emission wavelengths (nm) of 642, 665, and 670, respectively. • d. Hyaluronic acid (Hydrophilic): 30 μL of hyaluronic acid (HA, 800 KDa) stock solution at a concentration of 0.5 mg/mL in PBS (15 ug of HA) was mixed with 56 μL of hydrogel solution at a concentration of 25 (w/v) %. In addition, 14 μL of PBS were added to diluted the hydrogel solution down to 14 (w/v) %. Samples containing PLL were prepared by adding to the already mentioned composition 10 mg of PLL (10 (w/v) % PLL). The collected samples were analyzed via fluorescence spectroscopy at an excitation, filter, and emission wavelengths (nm) of 483, 495, 518, respectively.

Substance: FITC-Dextran
- release rate of FITC-dextran from hydrogel (first 55 hours, 100 μg FITC-Dextran (150 KDa) loaded): 0.84 ± 0.14 µg/h
- total amount loaded released (in 5 days (222 hours as printed)): about 52%
- release rate of FITC-dextran from hydrogel (thereafter (after first 55 hours)): 0.23 ± 0.02 µg/h
